Results as given in ChEMBL document CHEMBL1126784, “A selective delta 1 opioid receptor agonist derived from oxymorphone. Evidence for separate recognition sites for delta 1 opioid receptor agonists and antagonists” (J Med Chem, 1993).

The chains behind the UniProt entries cited, without tags or fusion partners. Where a name states a change or a piece, a line headed by the entry shows the natural chain unless it says otherwise.
UniProt P33534: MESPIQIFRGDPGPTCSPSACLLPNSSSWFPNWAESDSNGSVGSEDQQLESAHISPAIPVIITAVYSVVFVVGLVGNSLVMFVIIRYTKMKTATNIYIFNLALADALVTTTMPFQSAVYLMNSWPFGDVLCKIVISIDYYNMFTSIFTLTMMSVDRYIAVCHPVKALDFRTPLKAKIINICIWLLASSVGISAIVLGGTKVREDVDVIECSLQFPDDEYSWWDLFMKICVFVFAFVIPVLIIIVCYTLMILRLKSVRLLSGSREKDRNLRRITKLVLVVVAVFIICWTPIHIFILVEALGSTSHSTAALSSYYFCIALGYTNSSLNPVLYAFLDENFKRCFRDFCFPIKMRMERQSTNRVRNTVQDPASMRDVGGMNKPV

Biological target: Kappa-type opioid receptor (Mus musculus) (UniProt P33534)
Experiment: Selectivity against kappa receptor in the presence of 0.5 nmol icv SIOM

Question: Which Ratio does the source give for CN(C(=O)Cc1ccc(Cl)c(Cl)c1)C1CCCCC1N1CCCC1 (stereo unspecified) here?
Answer: 0.8
